Target: human FcγRIIb (human) (UniProt P31994)
Test: -; range printed as 1.8~2.3

By UniProt entry, the sequences of proteins in these tests, tags left out. Residues count along the entry.
UniProt P31994, 43-310: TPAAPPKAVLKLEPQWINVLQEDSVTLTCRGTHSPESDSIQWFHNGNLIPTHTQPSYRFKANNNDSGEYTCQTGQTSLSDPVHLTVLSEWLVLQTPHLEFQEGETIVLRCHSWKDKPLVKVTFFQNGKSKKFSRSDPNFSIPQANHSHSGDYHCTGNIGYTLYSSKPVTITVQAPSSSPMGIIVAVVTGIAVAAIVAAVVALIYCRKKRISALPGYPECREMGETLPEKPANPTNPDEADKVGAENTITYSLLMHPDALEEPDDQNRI

Kd: 1800 nM
Substance: IgG 1
